Results as given in ChEMBL document CHEMBL1131291, “Rational design, synthesis, and X-ray structure of selective noncovalent thrombin inhibitors” (J Med Chem, 1998).

Biological target: Prothrombin (Homo sapiens, UniProt P00734)
Test: In vitro inhibition was measured against Human Thrombin.
Method in brief: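 α-Thrombin was used at 160 pM final, with Pefachrome TH chromogenic substrate. Buffer was 100 mM sodium phosphate pH 7.4, 100 mM NaCl and 0.1% BSA, at 25 °C. Inhibitor was taken from a cremophor/ethanol 1:1 stock diluted with water to 1 mM. Enzyme was added last. p-Nitroaniline release was followed at 405 nm for 30 min. Ki came from a weighted Dixon regression; triplicate, mean ± SD.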

| Ki [nM] | Compound |
| --- | --- |
| 145 | N=C(N)NCCCNC(=O)[C@@H]1CS[C@H]2CC[C@@H](NS(=O)(=O)Cc3ccccc3)C(=O)N21 |
| 1450 | N=C(N)NCCCNC(=O)[C@@H]1CS[C@H]2CC[C@H](NS(=O)(=O)c3cccc4ccccc34)C(=O)N21 |
